scFv variants of Ab-14 (heavy chain) against a SARS-CoV-2 spike peptide

The target is the same throughout: PDVDLGDISGINAS, from the HR2 region of SARS-CoV-2 spike.

The variants keep the light chain, the linker and the frameworks of Ab-14 (scFv order VH, three GGGGS repeats, VL).
VH: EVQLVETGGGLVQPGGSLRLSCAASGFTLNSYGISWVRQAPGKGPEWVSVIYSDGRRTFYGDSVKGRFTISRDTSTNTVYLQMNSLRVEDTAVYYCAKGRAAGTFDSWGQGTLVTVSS
VL: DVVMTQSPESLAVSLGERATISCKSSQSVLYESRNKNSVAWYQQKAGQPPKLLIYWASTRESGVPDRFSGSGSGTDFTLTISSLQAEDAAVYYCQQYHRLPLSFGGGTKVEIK

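The parent was found by panning a naive human phage display library on the peptide. The variants were designed computationally from a first round of random CDR variants and then made and measured. Several design methods are mixed in this list. In AlphaSeq, yeast of one mating type display the scFv and yeast of the other type display the target. The frequency of each diploid, read from paired DNA barcodes, reflects how well the two displayed proteins bind. Each replicate has its own calibration line, from reference interactions of the BCL2 family. The assay was run in six technical replicates.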

Variants are written as CDR1, CDR2 and CDR3 of the heavy chain (limits as in the source). Parent: GFTLNSYGIS, VIYSDGRRTFYGDSVK, GRAAGTFDS.
Variants here have at most six changes.
Kd is apparent (estimated from mating counts) and averaged on the log scale over replicates with a signal. Smaller is tighter.
Where no diploid with the target was found in any replicate, the entry reads "nd": below detection, most likely a poor binder, though not proof of it.
The list is sorted by this average, lowest first, undetected variants last.
The authors averaged sequences with at least three values out of six and counted those with two or fewer as poor binders.
Nonspecific signal, from three strains lacking the peptide, appeared in 1% of pairings of all heavy chain designs, centred on 120 nM (5% of these signals below 7.0 nM); values are not corrected for it. For each scFv, signals with the empty controls are counted beside the result.
The range of this assay differs from that of the first round, and the authors advise against merging the two.
Where one sequence has several entries in the source, the replicates are pooled.

The variant GFDLNEYGIS | VIYADGRRTFYVDSVK | GGNAGTFDS showed 290 pM (6 of 6 replicates; controls 0 of 18). With GFQLNEYGIS | VIYSDGRRTFYQDSVK | GRAAGTFDT the result was 320 pM (6 of 6 replicates; controls 0 of 18). The variant GFTLNEYGIS | VIYSDGRRTFYTDSVK | GRMAGTFDV showed 490 pM (6 of 6 replicates; controls 0 of 18). The variant GFSLNEYGIS | VIYSDGRRTFYIDSVK | GRAAGTFDS showed 750 pM (6 of 6 replicates; controls 0 of 18). The variant GFTLNSYGIS | VIYSDGRRTFYADDVK | GQEAGTFDS showed 1.1 nM (6 of 6 replicates; controls 0 of 18). The variant GFELESYGIS | VIYSDGKRTFYGDSVK | GRTAGTFDS gave 1.3 nM (6 of 6 replicates; controls 1 of 18). For GFTVNSYGIS | VIYADGRRTFYGDSVK | GREAGTYDV, the assay gave 1.4 nM (6 of 6 replicates; controls 0 of 18). The variant GFTLNEYGIS | VIYSDGQRTFYGDDVK | GRTAGTFDS showed 1.8 nM (6 of 6 replicates; controls 0 of 18).

The variant GFQLNEYGIS | VIYSDGRRTFYGDSVK | GRAAGTFDS showed 3.8 nM (9 of 12 replicates; controls 0 of 36). The variant GFELNKYGIS | VIYSDGRRTFYGDSVK | GRMAGTFDS gave 6.2 nM (4 of 6 replicates; controls 0 of 18). The variant GFNLNSYGIS | VIYSDGRRTFYQDSVK | GRVAGTFDS showed 7.9 nM (5 of 6 replicates; controls 0 of 18). The variant GNTLNSYGIS | VIYSDGYRTHYGDSVR | GSAAGTFDS showed 12 nM (1 of 6 replicates; controls 0 of 18). With HFTLNSYGIS | VIYSDGRRTFYSDSVK | GEAGGTFDS the result was 14 nM (3 of 6 replicates; controls 0 of 18). With GFELNSYGIS | VIYSDGRRTFYGDSVK | GEAAGTFDL the result was 17 nM (5 of 6 replicates; controls 1 of 18). The variant GFPLDSYGIS | VIYSDGRRTFYGDSVK | GRNAGTFDS gave 20 nM (6 of 6 replicates; controls 0 of 18). For GFTLNSYGIS | VIYSDGRRTFYGDNVK | GRIAGTFDS, the assay gave 21 nM (5 of 6 replicates; controls 1 of 18).

For GFDLNSYGIS | VIYSDGRRTFYVDSVK | GRWAGTFDS, the assay gave 22 nM (6 of 6 replicates; controls 1 of 18). The variant GFTANSYGIS | VIYSDGRRTFYGDSVK | GNAAGTFDT gave 26 nM (2 of 6 replicates; controls 0 of 18). With GFTLNSYGVS | VIYSDGRRTFYGDSVK | GRAAGTFSE the result was 63 nM (3 of 6 replicates; controls 0 of 18). The variant GFTLNSYGIS | VIYSDGRRTFYGDSVK | GRAAGTFSS showed 79 nM (1 of 6 replicates; controls 0 of 18). The variant KFNLNSYGIS | VIYSDGRRTFYGDSVK | GKTAGTFDS showed 92 nM (3 of 6 replicates; controls 0 of 18). The variant GFELNSYGIS | VIYSDGRRTFYGDSVK | GRGAGTFDS showed 110 nM (1 of 6 replicates; controls 1 of 18). With GFTLNNYGIS | VIYSDGRRTFYDDSVK | GQLAGTFQS the result was 170 nM (3 of 6 replicates; controls 1 of 18). For GFSLNMYGIS | VIYSDGRRTFYGDSFK | GRAAGTFDS, the assay gave 170 nM (2 of 6 replicates; controls 0 of 18).

For GSTLNSYGIS | VIYSDGRRTFYLDSVK | GRAAGTFDS, the assay gave nd (0 of 6 replicates; controls 0 of 18). With LFTLNDYGIS | VIYSDGRRTQYIDSVK | GRAAGTKDS the result was nd (0 of 6 replicates; controls 0 of 18). With GFTLNSYGIS | VIYSTGRRTVYSDSVK | GRAGGTFQS the result was nd (0 of 6 replicates; controls 1 of 18). With GFTNNSYGIS | VIYSDGRRTAYGDSVK | GRAAGTFDS the result was nd (0 of 6 replicates; controls 0 of 18). With GFTLDDYGIS | VIYSDGQRTFYGDSVK | IKAAGWFDS the result was nd (0 of 6 replicates; controls 0 of 18). The variant GFTLNSYGIS | VIYADGRRTFYGDSVK | GRIVGTFLS gave nd (0 of 6 replicates; controls 0 of 18). The variant GFTLNSYGIS | VIYSDGLRTFYTDSFK | GRARGTFDS gave nd (0 of 6 replicates; controls 0 of 18). For GFELNSYGIS | VIYSDGRRTFYGDSVK | GRAAHTFDS, the assay gave nd (0 of 6 replicates; controls 0 of 18).

The variant GFDLNSYGIS | VIYSDGRRTFYDDSVK | GRAAGHFNS gave nd (0 of 6 replicates; controls 0 of 18). The variant GFTLPSYGIS | VIYSDGRRTFYTDSVK | GDAAGRFDS gave nd (0 of 6 replicates; controls 0 of 18). For GFTLNSYGIS | VIYSDGRRTFYADSVK | GREAGTFFS, the assay gave nd (0 of 6 replicates; controls 0 of 18). The variant GFTLMSYGIS | VIYSDGRRTFYGDSVK | GYEKISFDS gave nd (0 of 6 replicates; controls 0 of 18). The variant GFTLNQHGIS | VIYSDGRRTFYSDIVK | GRAAGFFDS gave nd (0 of 6 replicates; controls 0 of 18). The variant GFTLNSYGIS | VIYSDGRRTFYDDNVK | GRYAGTFHS gave nd (0 of 6 replicates; controls 0 of 18). The variant GFTLNDYGIS | VIYSDGIRTFYGDSVV | GRAAGTFDS gave nd (0 of 6 replicates; controls 0 of 18). With GFTLNSYGIS | VIYSDGRRTFYGDSVK | GFNAGQFDS the result was nd (0 of 6 replicates; controls 0 of 18).

The variant GDTLNSYGIS | VIYSDGMRTAYGDSVK | GKRIGTFDS showed nd (0 of 6 replicates; controls 0 of 18). The variant GFTLNSYGIS | VIYSDGRRTFYEDSVK | GKLAGTFDS gave nd (0 of 6 replicates; controls 0 of 18). The variant GFTLNEYGIS | VIYSDGRRTFYGDAVK | GRAAVTFDQ showed nd (0 of 6 replicates; controls 0 of 18). With GFTLNSYGIT | VIYSDGRRTFYGNSVR | GRAAGTFDS the result was nd (0 of 6 replicates; controls 0 of 18). The variant GFDLNSYGIS | VIYSDGRRTFYGDSVK | GRAAVTFDK gave nd (0 of 6 replicates; controls 0 of 18).

For reference, 7 entries of the list once more:

The variant GNTLNSYGIS | VIYSDGYRTHYGDSVR | GSAAGTFDS gave 12 nM (1 of 6 replicates; controls 0 of 18).
The variant GFTNNSYGIS | VIYSDGRRTAYGDSVK | GRAAGTFDS gave nd (0 of 6 replicates; controls 0 of 18).
The variant GFQLNEYGIS | VIYSDGRRTFYQDSVK | GRAAGTFDT gave 320 pM (6 of 6 replicates; controls 0 of 18).
The variant GFTLNSYGIS | VIYSDGLRTFYTDSFK | GRARGTFDS gave nd (0 of 6 replicates; controls 0 of 18).
The variant GFPLDSYGIS | VIYSDGRRTFYGDSVK | GRNAGTFDS gave 20 nM (6 of 6 replicates; controls 0 of 18).
The variant GFTLNEYGIS | VIYSDGRRTFYGDAVK | GRAAVTFDQ gave nd (0 of 6 replicates; controls 0 of 18).
The variant GFELNSYGIS | VIYSDGRRTFYGDSVK | GRAAHTFDS gave nd (0 of 6 replicates; controls 0 of 18).

Source: Li et al. 2023 (doi:10.1038/s41467-023-39022-2), MIT Lincoln Laboratory and A-Alpha Bio; data file from the FLAb repository.